Target: SMYD3 (Homo sapiens (Human), UniProt Q9H7B4)
Test: SMYD3 biochemical assay (SPA, 3H-SAM methylation of MEKK2 protein substrate)
Details: read-out: SMYD3 Biochem IC50 (μM)*
From the text: S-adenosylmethionine (SAM), S-adenosylhomocysteine (SAH), Tris, Tween20, dimethylsulfoxide (DMSO), bovine skin gelatin (BSG), and Tris(2-carboxyethyl)phosphine hydrochloride solution (TCEP) were purchased from Sigma-Aldrich at the highest level of purity possible. ^3H-SAM was purchase from American Radiolabeled Chemicals with a specific activity of 80 Ci/mmol. 384-well opaque white OptiPlates and SPA beads (Perkin Elmer, catalog # RPNQ0013) were purchased from PerkinElmer.
N-terminally GST-tagged MEKK2 (MAP3K2) protein corresponding to reference sequence AAF63496.3 was purchased from Life Technologies (catalog # PV4010). This protein was expressed in High Five insect cells and purified to >85% purity. Protein identity was confirmed by MS/MS analysis after proteolytic digestion. The protein sequence used was:
Full-length human SMYD3 isoform 1 (BAB86333) was inserted into a modified pET21b plasmid containing a His6 tag and TEV and SUMO cleavage sites. […]
The assays were all performed in a buffer consisting of 25 mM Tris-Cl pH 8.0, 1 mM TCEP, 0.005% BSG, and 0.005% Tween 20, prepared on the day of use. […] Radiolabeled MEKK2 was detected using a scintillation proximity assay (SPA). […] The plates were then read in a PerkinElmer TopCount plate reader to measure the quantity of ^3H-labeled MEKK2 as disintegrations per minute (dpm) or alternatively, referred to as counts per minute (cpm).

IC50: 13.9 µM
Compound: CCS(=O)(=O)N1CCC(NC(=O)c2cc(C3CC3)on2)CC1 [compound 41, 5-cyclopropyl-N-(1-(ethylsulfonyl)piperidin-4-yl)isoxazole-3-carboxamide]

From patent US10577363B2, “Substituted piperidine compounds” (EPIZYME, INC., priority 2014, dated 2020)
